Measured values taken from patent publication US12252701B2, “Chimeric antigen receptor T cell therapy” (KITE PHARMA, INC., priority 2020, dated 2025).

The chains behind the UniProt entries cited, without tags or fusion partners. Where a name states a change or a piece, a line headed by the entry shows the natural chain unless it says otherwise.
UniProt O60674: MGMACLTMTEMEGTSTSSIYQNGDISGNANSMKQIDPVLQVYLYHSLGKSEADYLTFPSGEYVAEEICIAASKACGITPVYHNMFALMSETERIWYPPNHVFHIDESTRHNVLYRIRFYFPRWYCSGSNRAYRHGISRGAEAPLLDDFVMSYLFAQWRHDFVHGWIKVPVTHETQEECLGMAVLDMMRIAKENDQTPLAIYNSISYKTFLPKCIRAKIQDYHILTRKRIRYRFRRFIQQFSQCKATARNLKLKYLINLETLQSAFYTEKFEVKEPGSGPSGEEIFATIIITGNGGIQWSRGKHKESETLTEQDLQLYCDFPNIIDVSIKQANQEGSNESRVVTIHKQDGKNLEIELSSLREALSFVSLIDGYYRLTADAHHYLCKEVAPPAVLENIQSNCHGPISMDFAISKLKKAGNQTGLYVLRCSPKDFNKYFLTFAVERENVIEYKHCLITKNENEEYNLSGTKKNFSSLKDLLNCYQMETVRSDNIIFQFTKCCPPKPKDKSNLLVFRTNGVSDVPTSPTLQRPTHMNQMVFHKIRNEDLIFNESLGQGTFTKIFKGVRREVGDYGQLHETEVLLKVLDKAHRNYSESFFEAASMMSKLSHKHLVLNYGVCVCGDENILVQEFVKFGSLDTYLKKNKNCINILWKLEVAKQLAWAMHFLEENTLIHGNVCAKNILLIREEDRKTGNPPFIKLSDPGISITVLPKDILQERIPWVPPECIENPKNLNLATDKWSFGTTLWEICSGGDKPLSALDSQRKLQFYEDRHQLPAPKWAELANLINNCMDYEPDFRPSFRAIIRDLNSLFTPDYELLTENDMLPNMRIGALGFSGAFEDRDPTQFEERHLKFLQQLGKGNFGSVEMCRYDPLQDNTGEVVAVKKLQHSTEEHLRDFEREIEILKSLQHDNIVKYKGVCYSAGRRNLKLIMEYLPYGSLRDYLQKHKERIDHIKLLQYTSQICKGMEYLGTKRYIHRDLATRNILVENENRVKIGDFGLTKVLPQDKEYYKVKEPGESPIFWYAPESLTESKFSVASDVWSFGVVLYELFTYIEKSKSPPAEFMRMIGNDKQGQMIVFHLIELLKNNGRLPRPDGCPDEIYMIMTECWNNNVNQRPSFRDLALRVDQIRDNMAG

Assays:
[1] = biological target: JAK2 (Homo sapiens, UniProt O60674); assay: JAK kinase inhibition biochemical assay (Kinase-Glo Plus luminescence), JAK2
[2] = system: CAR-T cells; assay: CAR-T cell expansion assay (KIP-1 or CD3/CD28 stimulation); settings: further dose titrations; depending on the mode of stimulation
[3] = Clinical pharmacokinetic data converted to in vitro concentrations; settings: human, in vivo

CCS(=O)(=O)N1CC(CC#N)(n2cc(-c3ncnc4[nH]ccc34)cn2)C1 [baricitinib]
IC50 [1]: 14 nM | concentration at and above which severe effects on expansion were seen [2]: 10 to 20 nM | PPB adj. in Vitro concentration [3]: 23 nM | clinically relevant dose level (in vitro concentration) [3]: ~25 nM
